Measured values from US7704695B2, “Screening of compounds for BGT1 transporter activity” (XenoPort, Inc., priority 2005, dated 2010).

The chains behind the UniProt entries cited, without tags or fusion partners.
UniProt P08183, whole entry: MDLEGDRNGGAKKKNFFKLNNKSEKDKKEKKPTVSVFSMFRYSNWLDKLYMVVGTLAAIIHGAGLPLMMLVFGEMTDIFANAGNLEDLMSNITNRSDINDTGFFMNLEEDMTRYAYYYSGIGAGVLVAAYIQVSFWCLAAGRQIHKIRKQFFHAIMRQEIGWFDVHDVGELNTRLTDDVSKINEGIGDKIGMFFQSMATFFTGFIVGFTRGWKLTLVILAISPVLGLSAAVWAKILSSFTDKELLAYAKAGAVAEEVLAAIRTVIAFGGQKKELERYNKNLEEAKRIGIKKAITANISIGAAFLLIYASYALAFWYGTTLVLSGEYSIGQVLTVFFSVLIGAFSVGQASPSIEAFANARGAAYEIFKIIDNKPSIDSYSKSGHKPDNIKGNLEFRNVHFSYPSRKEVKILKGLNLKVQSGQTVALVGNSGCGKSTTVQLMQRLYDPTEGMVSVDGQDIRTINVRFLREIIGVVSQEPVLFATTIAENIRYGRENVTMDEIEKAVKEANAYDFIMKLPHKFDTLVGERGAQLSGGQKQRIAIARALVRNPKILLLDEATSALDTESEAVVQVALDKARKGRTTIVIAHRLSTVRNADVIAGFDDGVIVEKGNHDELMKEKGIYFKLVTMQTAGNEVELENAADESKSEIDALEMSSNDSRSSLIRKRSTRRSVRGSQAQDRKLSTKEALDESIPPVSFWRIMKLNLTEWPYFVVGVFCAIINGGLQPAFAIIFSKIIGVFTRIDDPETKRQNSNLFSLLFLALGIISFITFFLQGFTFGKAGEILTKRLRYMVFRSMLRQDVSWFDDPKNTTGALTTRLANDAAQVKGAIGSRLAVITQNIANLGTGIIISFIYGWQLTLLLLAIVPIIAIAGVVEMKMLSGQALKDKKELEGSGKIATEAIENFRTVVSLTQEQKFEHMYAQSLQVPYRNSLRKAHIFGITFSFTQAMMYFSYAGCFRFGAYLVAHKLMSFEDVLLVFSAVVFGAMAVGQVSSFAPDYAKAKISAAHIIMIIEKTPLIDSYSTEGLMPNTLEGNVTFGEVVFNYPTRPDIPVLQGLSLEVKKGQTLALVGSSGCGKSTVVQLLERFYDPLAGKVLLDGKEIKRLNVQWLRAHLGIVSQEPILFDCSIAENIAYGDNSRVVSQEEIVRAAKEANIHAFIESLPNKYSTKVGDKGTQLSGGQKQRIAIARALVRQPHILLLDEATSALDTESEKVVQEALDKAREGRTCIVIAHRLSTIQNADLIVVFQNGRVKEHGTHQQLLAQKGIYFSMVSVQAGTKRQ

Target: PgP (Homo sapiens, UniProt P08183)
Test: Transwell monolayer efflux assay in MDCK TREx-PgP cells
Conditions: 2.5 nM; absence and presence of 250 μM verapamil
Procedure: Transwell monolayer efflux assays can be performed by transfecting MDCK cells with the tetracycline-inducible TREx-PgP expression vector. The cells optionally can be transfected with a nucleic acid encoding the transporter of interest. The transfected cells are seeded on polycarbonate filter membranes in transwell dishes and grown for 3-5 days, yielding a polarized monolayer with tight junctions between cells.

Substance: ^3H-vinblastine
- PgP substrate status from apical to basolateral and basolateral to apical transport: ^3H-vinblastine is a substrate of PgP
